Reference: article PMC3479139, “Diverse Small Molecule Inhibitors of Human Apurinic/Apyrimidinic Endonuclease APE1 Identified from a Screen of a Large Public Collection” (PLoS ONE, 2012)

By UniProt entry, the sequences of proteins in these tests, tags left out.
UniProt P27695, whole entry: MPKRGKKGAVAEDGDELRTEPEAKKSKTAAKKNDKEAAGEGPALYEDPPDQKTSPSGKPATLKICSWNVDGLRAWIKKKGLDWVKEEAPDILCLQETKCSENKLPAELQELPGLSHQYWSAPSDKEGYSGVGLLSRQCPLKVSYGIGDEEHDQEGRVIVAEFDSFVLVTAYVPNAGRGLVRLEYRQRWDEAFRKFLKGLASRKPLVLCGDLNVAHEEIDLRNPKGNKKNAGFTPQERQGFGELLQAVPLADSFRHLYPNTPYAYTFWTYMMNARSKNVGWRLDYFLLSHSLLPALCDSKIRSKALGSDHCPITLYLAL

Legend:
[1] = test system: double-stranded 17-mer DNA fragment; test: ThO (Thiazole Orange) DNA displacement assay; assay type: binding; conditions: for IC50: read-out: ThO-DNA binding IC50;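 for all read-outs here: miniaturized displacement of the intercalating dye from unlabeled duplex DNA, used to flag nonspecific DNA binders, chiefly intercalators, groove binders may be missed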
[2] = molecular target: E. coli Endo IV (Escherichia coli, UniProt P0A6C1); test: E. coli Endo IV profiling counterscreen; assay type: biochemical; conditions: read-out: EndoIV IC50;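 note: selectivity counterscreen of candidate APE1 inhibitors against the bacterial endonuclease Endo IV, run in the same assay format as the primary APE1 high-throughput screen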
[3] = molecular target: T1, APE1 (Homo sapiens, UniProt P27695); test: Fluorogenic kinetic qHTS APE1 incision assay (primary screen and retest of cherrypicked samples); assay type: biochemical;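 note: purified APE1 cleaving a fluorophore/dark-quencher labelled 17-mer duplex DNA bearing a tetrahydrofuran AP site, fluorescence rise followed kinetically over the first 2 min, inhibition normalized to controls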
[4] = molecular target: T1, APE1; test: Fluorescence polarization (FP) displacement assay of APE1 binding to AP-DNA probe; conditions: read-out: FP IC50;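 note: TAMRA 5′-labeled duplex DNA with THF abasic site (5 nM) and APE1 (20 nM), Mg2+-free buffer, 15 min at room temperature, inhibition seen as lowered polarization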

| SMILES | ThO assay signal behaviour (autofluorescence interference) [1] | IC50 [1] [µM] | IC50 [2] [µM] | IC50 ([3]; read-out: APE1 Retest IC50, retest of cherrypicked sample) [µM] | IC50 ([3]; read-out: APE1 qHTS IC50, initial quantitative high-throughput screen) [µM] | IC50 [4] [µM] |
| --- | --- | --- | --- | --- | --- | --- |
| COc1cccc2c1C(=O)c1c(O)c3c(c(O)c1C2=O)C[C@@](O)(C(C)=O)C[C@H]3O[C@H]1C[C@H](N)[C@H](O)[C@H](C)O1 | strong dose-dependent fluorescence signal increase | – | – | – | – | – |
| C[n+]1c2cc(N)ccc2cc2ccc(N)cc21 | – | > 57 | 10 | – | – | – |
| O=C(O)c1cccc(N2C(=O)C3CC=C(Cl)CC3C2=O)c1 (stereo not drawn) | – | > 57 | > 57 | – | – | – |
| CC1=C(C#N)c2nc(N)c(C#N)c(C)c2/C1=C\c1ccc(-c2ccccc2C(=O)O)o1 | – | 11.2 | > 57 | 14.1 | 25.1 | 12.6 |
| CC(=O)[C@]1(O)Cc2c(O)c3c(c(O)c2[C@@H](O[C@H]2C[C@H](N)[C@H](O)[C@H](C)O2)C1)C(=O)c1c(O)cccc1C3=O | – | > 57 | 12.6 | – | – | – |
